{
  "source": "paper PMC8265689",
  "about": "(Journal of the American Chemical Society, 2021)",
  "origin": "cited, not measured here",
  "key": {"[1]": {"conditions": "In CH3CN, λirr = 500 nm; L = imatinib; cited from earlier work"}, "[2]": {"conditions": "In MeOH, λirr = 460 nm; L = imatinib; cited from earlier work"}},
  "data": [
    {"substance": "[Ru(tpy)(Me2dppn)(imatinib)]^2+ [[Ru(tpy)(Me2dppn)(L)]^2+]", "values": [
      {"measurement": "Quantum yield of ligand exchange (ΦLE)", "setting": "[1]", "result": "0.073(1)"},
      {"measurement": "Quantum yield of singlet oxygen production (ΦΔ)", "setting": "[2]", "result": "0.57(7)"}
    ]}
  ]
}
